Data reported in patent US20240398845A1, “USE OF SGLT-2 INHIBITORS FOR THE PREVENTION AND/OR TREATMENT OF CARDIAC DISEASES IN NON-HUMAN MAMMALS EXCLUDING FELINES, IN PARTICULAR CANINES” (BOEHRINGER INGELHEIM VETMEDICA GMBH, priority 2021, published 2024).

System: dogs with occult or overt dilated cardiomyopathy (DCM)
Settings: case 100-006, overt DCM, velagliflozin oral 0.05 mg/kg bodyweight/day, torasemide 0.08 mg/kg/day added at D45

Structure (SMILES): N#Cc1ccc([C@@H]2O[C@H](CO)[C@@H](O)[C@H](O)[C@H]2O)cc1Cc1ccc(C2CC2)cc1 [velagliflozin, Velagliflozin]
- time to end of study (euthanized at day 69): 69 days
- treatment period until adverse event (severe weakness, tachypnea, reduced perfusion, atrial fibrillation, abdominal distension due to ascites) (attributed to progression of the heart disease): 68 days
